The target of this assay is T1, Geranylgeranyl pyrophosphate synthase (Homo sapiens, UniProt O95749).
T1 sequence (O95749 whole entry): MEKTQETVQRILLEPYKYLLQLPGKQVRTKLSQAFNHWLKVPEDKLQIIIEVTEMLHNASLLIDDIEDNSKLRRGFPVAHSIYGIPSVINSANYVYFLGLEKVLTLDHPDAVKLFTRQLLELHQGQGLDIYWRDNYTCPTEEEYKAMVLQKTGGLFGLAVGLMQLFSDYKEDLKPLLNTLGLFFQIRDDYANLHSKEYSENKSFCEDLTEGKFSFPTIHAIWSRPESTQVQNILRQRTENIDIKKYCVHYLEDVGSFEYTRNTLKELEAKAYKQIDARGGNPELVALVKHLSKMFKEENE
In words: Inhibition of recombinant GGDPS (unknown origin) using FPP and [14C] IPP as substrate preincubated for 10 mins followed by substrate addition measured after 30 mins by liquid scintillation counting method. In a few lines: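 In the enzyme assay, each compound was tested in duplicate at multiple concentrations, with three independent experiments. IC50 values were derived from concentration-response curve analysis.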

Each structure is given as a SMILES string. pIC50: −log10 of the molar value.

Take `CC(C)=CCC/C(C)=C/Cn1cc(CC(P(=O)(O)O)P(=O)(O)O)nn1`: the negative logarithm of the IC50 (pIC50) (commonly the negative decadic logarithm of the IC50, by convention in mol/L) is 5.66.

These data come from ChEMBL document CHEMBL4811322, “Impact of α-modifications on the activity of triazole bisphosphonates as geranylgeranyl diphosphate synthase inhibitors” (Bioorg Med Chem, 2021).
